Source: ChEMBL document CHEMBL1149292, “A rational utilization of high-throughput screening affords selective, orally bioavailable 1-benzyl-3-carboxyazetidine sphingosine-1-phosphate-1 receptor agonists” (J Med Chem, 2004)

The chains behind the UniProt entries cited, without tags or fusion partners.
UniProt P21453, whole entry: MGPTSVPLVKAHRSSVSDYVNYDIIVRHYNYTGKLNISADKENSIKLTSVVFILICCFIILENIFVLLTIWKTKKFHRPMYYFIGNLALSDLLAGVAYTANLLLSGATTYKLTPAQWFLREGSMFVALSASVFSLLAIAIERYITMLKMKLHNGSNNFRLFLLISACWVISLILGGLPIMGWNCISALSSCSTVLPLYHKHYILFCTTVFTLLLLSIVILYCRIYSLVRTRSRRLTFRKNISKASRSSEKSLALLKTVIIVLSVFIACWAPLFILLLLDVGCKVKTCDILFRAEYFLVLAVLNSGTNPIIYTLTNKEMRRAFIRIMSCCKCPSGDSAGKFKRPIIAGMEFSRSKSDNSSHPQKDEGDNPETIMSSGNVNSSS

Target: Sphingosine 1-phosphate receptor 1 (Homo sapiens, UniProt P21453)
Assay: Displacement of [33P]sphingosine 1 phosphate from human S1P1 receptor expressed in CHO cells
Assay type: cell-based

For `CCCCCCCCc1ccc(CCC(N)(CO)CO)cc1` [FINGOLIMOD], the IC50 was 840 nM (antagonist).
